Key:
[1] = Solubility in water and in lactic acid
Solubility in oils = conditions: arachis oil, sunflower oil, soybean oil etc.

Row | solubility in lactic acid ([1]; lactic acid) | solubility in water ([1]; water) | solubility in oils (in words) (Solubility in oils) | Substance
1 | 1 gm in 5 ml of lactic acid | 100 mg in 100 ml of water |  | Atorvastatin (S)-2,6-diaminohexanoic acid betaine
2 |  |  | freely soluble in oils | atorvastatin (S)-2,6-diaminohexanoic acid (Z)-9-Octadecenoic complex

From patent US20080200533A1, “Drug or Pharmaceutical Compounds and a Preparation Thereof” (priority 2005, published 2008)
